Assay results taken from patent US20230201290A1, “TGF-BETA INHIBITION, AGENTS AND COMPOSITION THEREFOR” (GMP BIOTECHNOLOGY LIMITED, priority 2020, published 2023).

Tested on: IL-6
Details: pancreatic cancer patients of P001

Which “patients with elevated IL-6 showing significant reduction in IL-6 level following 1st cycle of dosing” value does the source give for “cggcatgtct attttgta (antisense CGGCATGTCTATTTTGTA; chemistry not given here) [OT-101]” here?
Its value is 6 of 9.
